The target in the assay is cardiac troponin I (human (endogenous in heart tissue)) (UniProt P19429). In words: affinity purification with mass spectrometry; co-purification of the cTn subunits from human heart extract on the cTnI-binding peptide nanoparticles (NP-Pep); 25 mM Tris pH 7.5, 700 mM LiCl, 4 °C; native elution; subunits in the eluate analysed (Supplementary Fig. 2, 3a) and by top-down RPLC-MS/MS.

“troponin C (from UniProt P63316 1-161) (natural protein)” displayed a stoichiometry N of 1.

Source of the values: publication PMC10728164.
